Data as given in paper PMC7997411, “Discovery and Optimization of Selective Inhibitors of Meprin α (Part II)” (Pharmaceuticals, 2021).

Amino acid sequences for entries named in this document (tags omitted). Residues count along the entry.
UniProt O14672, 214-748 limits assumed: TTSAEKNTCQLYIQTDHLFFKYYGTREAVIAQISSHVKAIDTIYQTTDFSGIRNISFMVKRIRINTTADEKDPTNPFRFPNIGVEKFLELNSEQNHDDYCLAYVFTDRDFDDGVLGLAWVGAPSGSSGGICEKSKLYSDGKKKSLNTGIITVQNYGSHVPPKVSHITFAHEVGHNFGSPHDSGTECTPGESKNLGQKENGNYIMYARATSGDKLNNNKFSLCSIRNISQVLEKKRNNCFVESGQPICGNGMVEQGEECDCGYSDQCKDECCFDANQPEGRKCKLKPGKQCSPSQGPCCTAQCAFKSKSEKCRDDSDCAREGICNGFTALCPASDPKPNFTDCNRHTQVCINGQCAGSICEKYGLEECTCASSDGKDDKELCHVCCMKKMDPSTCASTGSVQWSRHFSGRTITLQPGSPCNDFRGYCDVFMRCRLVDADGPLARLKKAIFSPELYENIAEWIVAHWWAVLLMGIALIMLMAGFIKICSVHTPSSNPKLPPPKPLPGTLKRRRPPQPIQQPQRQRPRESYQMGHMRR

Biological target: ADAM10 (Homo sapiens, UniProt O14672)
Assay: ADAM10 assay
Type: biochemical
Description: All common chemicals were purchased from Sigma.
Both assays followed the same general protocol. […] After 30 min incubation at RT, the reactions were started by addition of 2.5 µL of 2× solutions of substrate (R&D Systems cat#: ES010, Mca-KPLGL-Dpa-AR-NH2, 20 µM). […] All compounds were tested in 10-point, 1:3 serial dilutions dose-response format starting with highest concentration of 100 µM. IC50 values were determined using non-linear regression analysis using the GraphPad Prism 8.0 suite of programs.

SMILES: CCCCC[C@H](CC(=O)NO)C(=O)N[C@H](C(=O)N1CCC[C@H]1CO)C(C)C [Actinonin, actinonin, reference compound]
- IC50: 2200 nM
